In article PMC3198503 one finds binding relative to the unmodified protein (fold of the unmodified protein) data, which are given here for 1 substance.

For this experiment, the target named is TRC40 (transmembrane domain recognition complex of 40 kDa) (rabbit (endogenous in rabbit reticulocyte lysate)). The experiment in a line: co-IP.

In the case of “Sec61βOPG^S77C,L79C, singly PEGylated (1×PEG) (from UniProt P60468 1-96) (natural protein)”, the binding relative to the unmodified protein (fold of the unmodified protein) is 0.5.
